Earlier results, collected in patent publication US20050153033A1, “Lactic acid bacteria for the treatment of food” (priority 2003, published 2005).

Settings: enzymes as listed for each bacteriocin in b6, b115; cited from earlier work

## nisin
  effect of proteolytic enzymes on the bacteriocin: inactivate
